Broadly, the pKi is −log10 of the Ki, conventionally taken in molar units. High values mean a low Ki, low ones a high Ki.

Consider 1 compound from ChEMBL document CHEMBL1828590 (J Med Chem, 2011).

In this test the target is T1, Polyamine deacetylase HDAC10 (Homo sapiens, UniProt Q969S8).
T1 sequence (Q969S8 whole entry): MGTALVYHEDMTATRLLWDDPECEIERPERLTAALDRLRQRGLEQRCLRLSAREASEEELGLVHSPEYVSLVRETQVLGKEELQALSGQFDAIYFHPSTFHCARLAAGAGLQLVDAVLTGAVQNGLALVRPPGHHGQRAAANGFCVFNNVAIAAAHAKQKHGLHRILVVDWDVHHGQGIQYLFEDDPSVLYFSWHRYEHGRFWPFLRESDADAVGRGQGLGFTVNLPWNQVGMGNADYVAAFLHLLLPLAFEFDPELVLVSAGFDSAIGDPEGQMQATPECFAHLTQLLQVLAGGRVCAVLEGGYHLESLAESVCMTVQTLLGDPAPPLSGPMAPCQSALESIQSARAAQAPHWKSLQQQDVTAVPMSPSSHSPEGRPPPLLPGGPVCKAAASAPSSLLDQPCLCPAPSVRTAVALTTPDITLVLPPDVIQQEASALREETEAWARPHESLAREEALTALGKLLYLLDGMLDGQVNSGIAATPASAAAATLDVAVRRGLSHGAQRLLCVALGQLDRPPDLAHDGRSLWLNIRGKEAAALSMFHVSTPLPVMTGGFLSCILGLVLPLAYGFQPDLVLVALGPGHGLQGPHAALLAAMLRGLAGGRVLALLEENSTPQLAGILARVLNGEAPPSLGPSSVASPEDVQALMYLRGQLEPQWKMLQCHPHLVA

Structures are written as SMILES. pKi: −log10 of the molar value.

With `O=C(CCCCCCC(=O)Nc1ccccc1)NO` [VORINOSTAT], the pKi was 7.22.
